We go through one compound from article doi:10.1101/2021.05.17.444520v1 (biorxiv, 2021).

By UniProt entry, the sequences of proteins in these tests, tags left out. Residues count along the entry.
UniProt P48167, 23-355, stated change not applied: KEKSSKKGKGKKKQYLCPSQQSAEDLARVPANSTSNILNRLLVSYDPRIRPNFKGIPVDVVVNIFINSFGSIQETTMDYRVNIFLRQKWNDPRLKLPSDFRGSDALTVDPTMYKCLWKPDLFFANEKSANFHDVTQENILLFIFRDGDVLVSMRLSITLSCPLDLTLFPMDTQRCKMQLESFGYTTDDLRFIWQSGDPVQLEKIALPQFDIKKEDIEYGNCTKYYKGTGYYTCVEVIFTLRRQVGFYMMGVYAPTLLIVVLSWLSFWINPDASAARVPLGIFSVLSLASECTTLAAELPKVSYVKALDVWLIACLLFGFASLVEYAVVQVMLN
UniProt P48167, 400-497, stated change not applied: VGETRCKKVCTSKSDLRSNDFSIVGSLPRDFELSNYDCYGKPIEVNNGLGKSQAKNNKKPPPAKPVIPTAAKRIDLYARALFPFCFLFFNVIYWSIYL

One may read the EC50 as the concentration giving half of the maximal effect. A low value points to an effect from little substance.

Molecules are shown by their SMILES.

For test [1], the target named is heteromeric α2β GlyR (α2em:βem) (Homo sapiens, UniProt P23416+P48167, P23416:DEL344-408/P23416:INS343GSSG/P48167:DEL356-399). As to the kind of experiment: whole-cell patch clamp. It counts as cell-based. On the technique in general: The patch-clamp technique gives a direct electrical read-out from membranes.
The next test concerns the target T1, homomeric α2 GlyR (α2em) (Homo sapiens, UniProt P23416, DEL344-408/INS343GSSG).
T1 sequence (P23416 with tags, fused parts or gaps INS343GSSG/DEL344-408): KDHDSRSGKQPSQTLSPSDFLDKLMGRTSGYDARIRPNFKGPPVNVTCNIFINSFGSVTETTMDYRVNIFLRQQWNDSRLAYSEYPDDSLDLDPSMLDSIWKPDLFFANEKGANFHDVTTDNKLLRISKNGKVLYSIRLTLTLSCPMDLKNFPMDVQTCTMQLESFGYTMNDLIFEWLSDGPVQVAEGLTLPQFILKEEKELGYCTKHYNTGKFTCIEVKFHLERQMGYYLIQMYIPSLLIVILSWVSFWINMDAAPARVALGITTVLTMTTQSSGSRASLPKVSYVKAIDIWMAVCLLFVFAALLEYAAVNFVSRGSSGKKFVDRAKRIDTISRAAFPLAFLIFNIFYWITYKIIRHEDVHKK
Briefly: whole-cell patch clamp. It counts as cell-based.

In the case of `NCC(=O)O` [glycine], the EC50 in test [1] was ~60 µM; at homomeric α2 GlyR (α2em), ~100 µM.
